The source of these data is PubChem BioAssay AID463212 (Sanford-Burnham Center for Chemical Genomics, 2010).

SMILES strings stand for the structures. This is a selection; strong and weak results do not stand in their true shares. Active and inactive are the calls of the source.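 The calls were made as follows: active = growth inhibition of the mutant yeast at or above 50%; inactive = the rest.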

For orientation: inhibition means the relative decrease from the control value, in per cent.

The nature of this assay: growth inhibition of tim23-1 ts yeast – luminescence, uHTS, primary screen (AID 463212).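 Also: temperature-sensitive mutant grown at 25 °C; plate controls were DMSO-treated mutant yeast for no effect and medium wells lacking yeast for full effect.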 The following applies: S. cerevisiae tim23-1 growth, BacTiter-Glo luminescence, 24 h; at 20 µM; hits give high values.
`CCCOc1ccc(C)cc1CN(CCCl)CCCl`: the inhibition was inactive: -1.3%.

As for `CN1CCC(Nc2ccc(Cl)cc2)CC1`, the inhibition is inactive: 11.5%.

Consider `CCC(CO)(C(=O)OC1CN2CCC1CC2)c1ccccc1` (configuration not stated), for which the inhibition is inactive: 15.1%.

In the case of `COc1cc(OC)cc(C(=O)NCC2(N3CCOCC3)CCCCC2)c1`, the inhibition was inactive: 3.56%.

For `COc1cccc(C(=O)N(c2cc(C)cc(C)c2)C2CCN(C(=O)OC(C)(C)C)CC2)c1`, the inhibition is inactive: 30%.

With `CCCOc1ccc(C(=O)NCC2(N(C)C)CCCCC2)cc1`, the inhibition is inactive: -1.83%.

For `CC(C)(C)OC(=O)N1CCC(Nc2ccccc2)CC1`, the inhibition is inactive: -0.363%.

For `O=C(O)C1(Nc2ccccc2)CCN(Cc2ccccc2)CC1`, the inhibition is inactive: 1.13%.

Consider `CCOc1ncccc1C(=O)NCC1(N2CCOCC2)CCCCC1`, for which the inhibition was inactive: 19.4%.

For the compound `CN1CCC(Nc2ccc(F)c(Cl)c2)CC1`, the inhibition is inactive: -6.72%.

As for `O=C(NCC1(N2CCCCC2)CCCCC1)c1ccco1`, the inhibition is inactive: -10.6%.

In the case of `CN(C)c1ccc(C(=O)NCC2(N3CCCCC3)CCCCC2)cc1`, the inhibition is inactive: -3.11%.

In the case of `CCN1CCC(Nc2cccc(F)c2)CC1`, the inhibition was inactive: 4.29%.

Consider `Cc1ccc(C(=O)NCC2(N3CCCCC3)CCCCC2)o1`, for which the inhibition was inactive: 20.2%.

As for `Fc1ccccc1NC1CCN(Cc2ccccc2)CC1`, the inhibition is inactive: -14.2%.

Turning to `COc1cc(OC)cc(C(=O)NCC2(N3CCCCC3)CCCCC2)c1`, the inhibition is inactive: 9.26%.

Consider `c1ccc(CN2CCC(Nc3ccccc3)CC2)cc1`, for which the inhibition is inactive: 5.96%.

`CCCN1CCC(Nc2cc(OC)cc(OC)c2)CC1`: the inhibition was inactive: 4.1%.

For the compound `CN(C)C1(CNC(=O)c2cccc(C#N)c2)CCCCC1`, the inhibition was inactive: 3%.

Regarding `CC(C)(C)OC(=O)N1CCC(N(C(=O)c2ccccc2)c2ccc(Cl)cc2)CC1`, the inhibition was inactive: 33%.

In the case of `N#Cc1ccc(C(=O)NCC2(N3CCCCC3)CCCCC2)cc1`, the inhibition was inactive: 5.28%.

As for `O=C(OC1CN2CCC1CC2)C1c2ccccc2C=Cc2ccccc21` (configuration not stated), the inhibition was inactive: -2.04%.

For the compound `CCc1cc(C(=O)NCC2(N3CCCCC3)CCCCC2)sc1C`, the inhibition is inactive: 4%.

`N/C(=N\O)c1c(N)no[n+]1[O-]`: the inhibition was inactive: -9.41%.

Regarding `CCOC(=O)N1CCC(Nc2ccc(C)cc2)CC1`, the inhibition is inactive: 10.6%.

On to `COc1ccc(C(=O)NCC2(N3CCOCC3)CCCCC2)cc1OC`, for which the inhibition was inactive: -5.87%.

In the case of `O=C(NCC1(N2CCOCC2)CCCCC1)c1cc(Br)ccc1Cl`, the inhibition is inactive: -1.31%.

As for `COc1cc(C(=O)NCC2(N3CCOCC3)CCCCC2)cc(OC)c1C`, the inhibition is inactive: 15.9%.

As to `O=C(NCC1(N2CCCCC2)CCCCC1)c1cncc(Br)c1`, the inhibition was inactive: -0.134%.

For `CN1CCC(Nc2cccc(F)c2)CC1`, the inhibition was inactive: -1.12%.

With `COc1cc(OC)c(C(=O)NCC2(N(C)C)CCCCC2)cc1OC`, the inhibition is inactive: -8.07%.

As to `O=C(NCC1(N2CCOCC2)CCCCC1)c1cc(F)c(F)cc1Cl`, the inhibition was inactive: -3.65%.

For the compound `COc1ccc(CN(CCCl)CCCl)cc1Cl`, the inhibition was inactive: -4.1%.

With `CN(C)c1cccc(C(=O)NCC2(N3CCCCC3)CCCCC2)c1`, the inhibition was inactive: 3.71%.

Turning to `CC(C)c1ccc(NC2CCN(C(=O)OC(C)(C)C)CC2)cc1`, the inhibition is inactive: 18.5%.

Regarding `CN1CCN(CCOC(=O)C(O)(c2ccccc2)c2ccccc2)CC1`, the inhibition was inactive: -4.45%.

As to `CC(C)c1ccc(C(=O)NCC2(N3CCOCC3)CCCCC2)cc1`, the inhibition is inactive: 25.5%.

Regarding `COc1ccc(NC2CCN(C(=O)OC(C)(C)C)CC2)cc1`, the inhibition is inactive: 18.2%.

With `COc1cc(C(=O)NCC2(N3CCCCC3)CCCCC2)ccc1OC(F)F`, the inhibition is inactive: -5.05%.

As for `O=C(NCC1(N2CCOCC2)CCCCC1)c1cc(=O)[nH]c2ccccc12`, the inhibition is inactive: -11.1%.

In the case of `O=C(NCC1(N2CCCCC2)CCCCC1)c1cccc(C(F)(F)F)c1`, the inhibition was inactive: 4.91%.

Consider `CSc1ccc(C(=O)NCC2(N3CCOCC3)CCCCC2)cc1`, for which the inhibition was inactive: 10.1%.

In the case of `O=C(NCC1(N2CCCCC2)CCCCC1)c1cccc([N+](=O)[O-])c1`, the inhibition is inactive: 4.1%.

In the case of `CCN1CCC(Nc2ccc(Cl)cc2)CC1`, the inhibition is inactive: 5.7%.

On to `N#CC1(Nc2ccccc2)CCN(CCc2ccccc2)CC1`, for which the inhibition is inactive: 10.6%.

Consider `O=C(NCC1(N2CCCCC2)CCCCC1)c1ccc(OC(F)F)cc1`, for which the inhibition is inactive: 14.6%.

Take `CCOC(=O)N1CCC(Nc2cccc(C)c2)CC1`: the inhibition was inactive: 15.7%.

On to `Cc1ccc(OCC(C)C)c(CN(CCCl)CCCl)c1`, for which the inhibition was inactive: 22.2%.

Turning to `O=C(NCC1(N2CCCCC2)CCCCC1)c1ccc(F)cc1`, the inhibition is inactive: 11.6%.

`CCCCOc1ccc(C(=O)NCC2(N3CCOCC3)CCCCC2)cc1`: the inhibition was inactive: 16.6%.

For the compound `COc1ccc(NC2CCN(CCc3ccccc3)CC2)c(OC)c1`, the inhibition is inactive: -0.409%.

On to `CCOC(=O)N1CCC(Nc2ccc(F)cc2)CC1`, for which the inhibition was inactive: 17%.

Take `CCOc1ccc(C)cc1CN(CCCl)CCCl`: the inhibition was inactive: 1.6%.

With `CCOC(=O)N1CCC(Nc2ccc(OC)cc2)CC1`, the inhibition is inactive: 6.84%.

Regarding `O=C(OC1CN2CCC1CC2)C1c2ccccc2Oc2ccccc21` (configuration not stated), the inhibition is inactive: -8.43%.

Consider `N#CC1(Nc2ccccc2)CCN(Cc2ccccc2)CC1`, for which the inhibition was inactive: 10.9%.

As to `O=C(NCC1(N2CCCCC2)CCCCC1)c1ccc(Cl)s1`, the inhibition was inactive: 1.72%.

As to `COc1ccc(Cl)cc1C(=O)NCC1(N2CCOCC2)CCCCC1`, the inhibition is inactive: 25.2%.

Regarding `O=C(NCC1(N2CCOCC2)CCCCC1)c1cc2ccccc2o1`, the inhibition was inactive: 19.1%.

On to `O=C(NCC1(N2CCCCC2)CCCCC1)c1ccc(Cl)nc1`, for which the inhibition is inactive: 4.91%.

For the compound `Cc1cc(C)cc(N(C(=O)c2ccccc2)C2CCN(C(=O)OC(C)(C)C)CC2)c1`, the inhibition was inactive: 18.1%.

Consider `CSc1ccccc1C(=O)NCC1(N2CCCCC2)CCCCC1`, for which the inhibition is inactive: 10.4%.

As to `O=C(NCC1(N2CCCCC2)CCCCC1)c1ccc(=O)[nH]c1`, the inhibition is inactive: 0.469%.

Regarding `O=C(NCC1(N2CCCCC2)CCCCC1)c1cccs1`, the inhibition is inactive: 20.7%.

For `COc1ccc(C(=O)NCC2(N3CCCCC3)CCCCC2)cc1`, the inhibition was inactive: 12.4%.

Take `CC(C)(C)OC(=O)N1CCC(N(C(=O)c2ccccc2)c2ccc(F)cc2)CC1`: the inhibition is inactive: 18.3%.

For the compound `COc1ccc(C(=O)NCC2(N3CCCCC3)CCCCC2)c(OC)c1OC`, the inhibition is inactive: -3.52%.
